A word on the IC50: it is the point on the concentration scale where inhibition reaches its midpoint.

Chains of the proteins cited; added tags and fusions are not shown.
UniProt Q15418, whole entry: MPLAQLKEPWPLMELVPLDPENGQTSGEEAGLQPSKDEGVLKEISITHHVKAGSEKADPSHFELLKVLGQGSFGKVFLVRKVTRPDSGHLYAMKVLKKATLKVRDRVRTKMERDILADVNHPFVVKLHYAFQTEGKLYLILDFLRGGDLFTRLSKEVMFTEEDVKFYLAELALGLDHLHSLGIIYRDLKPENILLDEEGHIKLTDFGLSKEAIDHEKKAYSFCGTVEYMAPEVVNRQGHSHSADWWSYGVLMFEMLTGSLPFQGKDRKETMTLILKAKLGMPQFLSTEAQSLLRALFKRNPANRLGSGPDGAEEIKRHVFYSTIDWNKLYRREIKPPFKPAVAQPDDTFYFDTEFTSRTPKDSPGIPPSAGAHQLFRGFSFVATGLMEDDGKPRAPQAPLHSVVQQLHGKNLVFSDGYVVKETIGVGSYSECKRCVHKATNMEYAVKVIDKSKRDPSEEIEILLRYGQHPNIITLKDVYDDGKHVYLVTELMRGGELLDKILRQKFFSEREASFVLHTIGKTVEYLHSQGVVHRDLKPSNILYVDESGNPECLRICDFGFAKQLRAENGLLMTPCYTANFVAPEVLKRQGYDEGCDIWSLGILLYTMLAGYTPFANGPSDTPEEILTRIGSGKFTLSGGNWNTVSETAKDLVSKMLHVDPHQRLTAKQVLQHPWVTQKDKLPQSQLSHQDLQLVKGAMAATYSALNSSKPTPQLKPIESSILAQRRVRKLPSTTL

For this test, the target named is Ribosomal protein S6 kinase alpha-1 (Homo sapiens, UniProt Q15418). Nature of the test: Inhibition of RSK1 (unknown origin) by microfluidic mobility shift assay.

As for `c1nc(N2CCC3(CCCNC3)CC2)c2nc[nH]c2n1`, the half-maximal inhibitory concentration (IC50) is 13 µM.

(Values after ChEMBL document CHEMBL2417369, “Synthesis and evaluation of heteroaryl substituted diazaspirocycles as scaffolds to probe the ATP-binding site of protein kinases” (Bioorg Med Chem, 2013).)
